Assays:
Smu. 1393c = Smu. 1393c (Streptococcus mutans, UniProt Q8DTF4); experiment: Inhibition of Smu. 1393c PNP-ac hydrolysis by demeton-S-methyl
AChE = AChE (Electrophorus electricus, UniProt O42275); experiment: Ellman assay with 0-20 mM acetylthiocholine and 500 uM DTNB in 200 mM NaCl, 20 mM Tris pH 7.4, uninhibited AChE, Michaelis-Menten fit.; details: read-out: Km (mM), AChE

Protein sequences, listed by entry. Tags and fused reporters are not part of them. Residues count along the entry.
UniProt O42275, 24-633 limits assumed: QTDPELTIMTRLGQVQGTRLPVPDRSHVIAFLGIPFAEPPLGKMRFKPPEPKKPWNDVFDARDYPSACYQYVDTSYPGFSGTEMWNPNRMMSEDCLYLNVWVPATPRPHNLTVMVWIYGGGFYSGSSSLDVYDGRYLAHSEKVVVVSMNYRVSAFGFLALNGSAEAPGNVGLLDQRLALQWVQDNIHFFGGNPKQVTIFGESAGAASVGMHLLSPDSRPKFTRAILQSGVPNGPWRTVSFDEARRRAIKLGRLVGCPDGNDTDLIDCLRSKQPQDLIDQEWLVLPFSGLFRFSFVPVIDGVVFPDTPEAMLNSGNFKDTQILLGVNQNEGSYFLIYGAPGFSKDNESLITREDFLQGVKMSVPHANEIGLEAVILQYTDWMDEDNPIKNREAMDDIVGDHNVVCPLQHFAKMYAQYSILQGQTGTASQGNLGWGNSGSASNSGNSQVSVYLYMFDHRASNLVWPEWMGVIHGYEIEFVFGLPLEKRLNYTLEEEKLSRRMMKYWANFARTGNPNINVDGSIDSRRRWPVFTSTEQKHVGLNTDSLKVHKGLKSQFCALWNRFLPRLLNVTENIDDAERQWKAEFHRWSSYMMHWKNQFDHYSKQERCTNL

| SMILES | manner of inhibition (Smu. 1393c; double reciprocal plot) | Ki (Smu. 1393c; inhibition of PNP-ac hydrolysis activity) [µM] | Km (AChE) [mM] |
| --- | --- | --- | --- |
| CCSCCSP(=O)(OC)OC | non-competitive | 10.6 |  |
| CC(=O)SCC[N+](C)(C)C |  |  | 3.05 |
